The numbers were not newly measured in US6838436B1, “Inhibitors of proteasomal activity for stimulating bone growth” (Osteoscreen Inc., priority 1998, dated 2005), which cites them from elsewhere.

In the series the target is cathepsin B (Homo sapiens, UniProt P07858). Conditions: cited from earlier work.

Turning to `CC[C@H](C)[C@H](NC(=O)[C@H]([C@@H](C)CC)N(C)C(C)=O)C(=O)N[C@H](C(=O)N[C@@H](CC(C)C)C(=O)[C@@]1(C)CO1)[C@@H](C)O` [Epoxomicin], the “concentration up to which no inhibition appears” value was above 50 µM.
